For ten molecules, growth results are on record in PubChem BioAssay (NCI).

Test systems include SK-MEL-2 melanoma; SN12C renal; UO-31 renal; TK-10 renal; ACHN renal; CAKI-1 renal; A498 renal; HL-60(TB) leukemia; MOLT-4 leukemia; SR leukemia; RPMI-8226 leukemia; OVCAR-8 ovarian; OVCAR-5 ovarian; OVCAR-4 ovarian; SK-OV-3 ovarian; IGROV1 ovarian; OVCAR-3 ovarian; HS 578T breast; EKVX NSCLC; CCRF-CEM leukemia.
Holding throughout (experiment): NCI-60 one-dose screen, 48 h (100 = growth as untreated, 0 = no growth, -100 = all killed)
Holding throughout (conditions): 10 µM unless noted

Molecules are shown by their SMILES. The list shows a part of the results, in another mix than the full data.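 How to read the values: 0–100, growth inhibition (40 = 60% inhibited); 0, no net growth; -100 to 0, cell death (-40 = 40% of starting cells died; -100 = all dead).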 The source made the active and inactive calls. How the source made its calls: active means growth percent below 10; inactive means the rest.

`COc1cccc([As]=O)c1` (stereo unspecified): the growth in the test on SK-MEL-2 melanoma was active: -83.1%; in the test with SN12C renal, active: -98%; with UO-31 renal, active: -93.2%; in the test with TK-10 renal, active: -93.6%; in the test on ACHN renal it was active: -99.1%; in the test with CAKI-1 renal, active: -95.6%. Besides, the growth with A498 renal was active: -95.6%; with HL-60(TB) leukemia, active: -68.6%; in the test with MOLT-4 leukemia it was active: -37.1%; with SR leukemia it was active: -26.2%; in the test on RPMI-8226 leukemia, active: -49.4%; with OVCAR-8 ovarian, active: -92.9%. Besides, the growth in the test with OVCAR-5 ovarian was active: -86.6%; in the test on OVCAR-4 ovarian, active: -85.7%; in the test on SK-OV-3 ovarian it was active: -98%; in the test on IGROV1 ovarian, active: -52.2%; in the test with OVCAR-3 ovarian, active: -92.1%; with HS 578T breast, active: 3.89%.
As for `Cc1ccc(OP(=O)(Nc2ccc([N+](=O)[O-])cn2)Oc2ccc(C)cc2)cc1`, the growth is inactive: 107% with EKVX NSCLC; inactive: 106% with SN12C renal; inactive: 76.5% with UO-31 renal; inactive: 161% with TK-10 renal; inactive: 103% in the test with ACHN renal; inactive: 21.2% in the test on A498 renal. Besides, the growth with HL-60(TB) leukemia was inactive: 102%; with CCRF-CEM leukemia, inactive: 109%; with OVCAR-8 ovarian, inactive: 84.7%; with OVCAR-5 ovarian, inactive: 114%; with OVCAR-4 ovarian it was inactive: 98.9%; with SK-OV-3 ovarian, inactive: 102%. In addition, the growth in the test on IGROV1 ovarian is inactive: 85.2%; with HS 578T breast, inactive: 99.3%.
For `NNc1ccc([N+](=O)[O-])cc1[N+](=O)[O-]`, the growth is inactive: 101% with EKVX NSCLC; inactive: 98.9% in the test on SN12C renal; inactive: 60.8% in the test on UO-31 renal; inactive: 106% in the test on TK-10 renal; inactive: 89.4% with ACHN renal; inactive: 84.1% in the test on CAKI-1 renal. In addition, the growth in the test on A498 renal was inactive: 99.2%; in the test with HL-60(TB) leukemia, inactive: 98.7%; in the test on CCRF-CEM leukemia, inactive: 69.9%; in the test on MOLT-4 leukemia, inactive: 91.8%; in the test with SR leukemia it was inactive: 76.7%; with RPMI-8226 leukemia, inactive: 82.1%. The growth in the test on OVCAR-8 ovarian is inactive: 103%; with OVCAR-5 ovarian it was inactive: 101%; with OVCAR-4 ovarian, inactive: 115%; in the test on SK-OV-3 ovarian it was inactive: 97.4%; in the test on IGROV1 ovarian, inactive: 100%; in the test with OVCAR-3 ovarian it was inactive: 110%. In addition, the growth in the test with HS 578T breast is inactive: 110%.
In the case of `Cc1ccc(S(=O)(=O)CN(CCCl)CCCl)cc1`, the growth with SN12C renal is inactive: 103%; with UO-31 renal, inactive: 83.4%; with TK-10 renal, inactive: 126%; with ACHN renal, inactive: 98.7%; in the test with CAKI-1 renal it was inactive: 101%; with A498 renal, inactive: 101%. Besides, the growth in the test on HL-60(TB) leukemia was inactive: 105%; in the test on CCRF-CEM leukemia, inactive: 99.7%; in the test on MOLT-4 leukemia it was inactive: 99.8%; in the test on SR leukemia, inactive: 104%; with RPMI-8226 leukemia, inactive: 103%; in the test on OVCAR-8 ovarian it was inactive: 110%. In addition, the growth was inactive: 116% in the test with OVCAR-5 ovarian; inactive: 96.9% in the test on OVCAR-4 ovarian; inactive: 97.9% in the test with SK-OV-3 ovarian; inactive: 123% in the test with IGROV1 ovarian; inactive: 110% with OVCAR-3 ovarian; inactive: 108% with HS 578T breast.
Turning to `COC(=O)N(C)[N+](=O)[O-]`, the growth in the test on SK-MEL-2 melanoma is inactive: 118%; in the test on SN12C renal it was inactive: 94.1%; in the test with UO-31 renal, inactive: 97.3%; in the test with TK-10 renal it was inactive: 108%; with ACHN renal, inactive: 89.5%; with CAKI-1 renal it was inactive: 95.8%. The growth was inactive: 101% with A498 renal; inactive: 103% in the test with HL-60(TB) leukemia; inactive: 105% in the test on MOLT-4 leukemia; inactive: 103% with SR leukemia; inactive: 97.7% in the test with RPMI-8226 leukemia; inactive: 99.8% in the test with OVCAR-8 ovarian. The growth is inactive: 98.4% in the test with OVCAR-5 ovarian; inactive: 96.4% in the test on OVCAR-4 ovarian; inactive: 112% in the test with SK-OV-3 ovarian; inactive: 98.2% with IGROV1 ovarian; inactive: 129% with OVCAR-3 ovarian; inactive: 107% in the test with HS 578T breast.
Turning to `O=C(O)CNc1ccc([As](=O)(O)O)cc1`, the growth with EKVX NSCLC was inactive: 103%; in the test on SN12C renal it was inactive: 97.4%; in the test on UO-31 renal, inactive: 91.2%; in the test on TK-10 renal, inactive: 98.8%; with ACHN renal, inactive: 97.9%; with CAKI-1 renal it was inactive: 81.6%. Also, the growth is inactive: 89.6% in the test with A498 renal; inactive: 88.3% with HL-60(TB) leukemia; inactive: 100% with CCRF-CEM leukemia; inactive: 101% with MOLT-4 leukemia; inactive: 107% in the test on SR leukemia; inactive: 108% in the test on OVCAR-8 ovarian. Besides, the growth was inactive: 132% in the test with OVCAR-5 ovarian; inactive: 100% in the test with OVCAR-4 ovarian; inactive: 100% with SK-OV-3 ovarian; inactive: 109% in the test on OVCAR-3 ovarian; inactive: 98.2% in the test with HS 578T breast.
For `CCN(CC)[P+](c1ccc(OC)cc1OC)(N(CC)CC)N(CC)CC`, the growth with SK-MEL-2 melanoma was inactive: 32.3%; in the test with SN12C renal, inactive: 22.9%; in the test on UO-31 renal it was inactive: 92.3%; in the test on TK-10 renal it was inactive: 37.4%; in the test with ACHN renal, inactive: 87.5%; with CAKI-1 renal it was inactive: 99%. In addition, the growth in the test with HL-60(TB) leukemia was active: -24.6%; with CCRF-CEM leukemia it was inactive: 28.4%; in the test with MOLT-4 leukemia it was inactive: 52.8%; with SR leukemia, active: 2.75%; with RPMI-8226 leukemia it was inactive: 11.5%; in the test with OVCAR-8 ovarian, active: -0.745%. Further, the growth with OVCAR-5 ovarian was inactive: 83.3%; with OVCAR-4 ovarian, inactive: 35.3%; in the test on SK-OV-3 ovarian, inactive: 64.2%; in the test with IGROV1 ovarian it was inactive: 49.2%; in the test with OVCAR-3 ovarian, inactive: 13.1%; in the test with HS 578T breast it was inactive: 66%.
For `CCCCCCCNP(=S)(Cl)Cl`, the growth with SK-MEL-2 melanoma is inactive: 115%; in the test on SN12C renal, inactive: 104%; in the test with UO-31 renal, inactive: 87.7%; with TK-10 renal, inactive: 106%; in the test with ACHN renal, inactive: 101%; in the test on CAKI-1 renal it was inactive: 99.3%. Further, the growth in the test on A498 renal is inactive: 102%; with CCRF-CEM leukemia, inactive: 109%; in the test with MOLT-4 leukemia, inactive: 104%; in the test with SR leukemia it was inactive: 104%; in the test on RPMI-8226 leukemia it was inactive: 104%; in the test with OVCAR-8 ovarian, inactive: 106%. For the same molecule, the growth was inactive: 103% in the test with OVCAR-5 ovarian; inactive: 96.1% in the test with OVCAR-4 ovarian; inactive: 94% in the test with SK-OV-3 ovarian; inactive: 107% in the test with OVCAR-3 ovarian; inactive: 114% in the test on HS 578T breast.
For the molecule `O=C(O)Cc1ccc(N(CCCl)CCCl)cc1`, the growth with SN12C renal was inactive: 99.1%; with UO-31 renal, inactive: 90.1%; in the test on TK-10 renal, inactive: 109%; in the test with ACHN renal, inactive: 103%; in the test with HL-60(TB) leukemia it was inactive: 96.8%; with CCRF-CEM leukemia, inactive: 88.6%. For the same molecule, the growth is inactive: 91.2% in the test with MOLT-4 leukemia; inactive: 64.3% in the test on SR leukemia; inactive: 95.5% in the test on RPMI-8226 leukemia; inactive: 95.1% with OVCAR-8 ovarian; inactive: 108% in the test with OVCAR-5 ovarian; inactive: 104% in the test with OVCAR-4 ovarian. In addition, the growth was inactive: 97.2% in the test with SK-OV-3 ovarian, inactive: 83.2% with IGROV1 ovarian and inactive: 94.1% with OVCAR-3 ovarian.
Consider `Cn1c(=O)c2[nH]c(N(CCCl)CCCl)nc2n(C)c1=O`, for which the growth with SK-MEL-2 melanoma was inactive: 99.3%; in the test with SN12C renal, inactive: 109%; in the test on UO-31 renal, inactive: 74.1%; in the test with TK-10 renal it was inactive: 102%; in the test with ACHN renal, inactive: 93.6%; in the test on CAKI-1 renal, inactive: 93.8%. In addition, the growth with A498 renal was inactive: 108%; in the test on HL-60(TB) leukemia it was inactive: 87.1%; with MOLT-4 leukemia it was inactive: 90.8%; in the test with SR leukemia, inactive: 91.2%; in the test with RPMI-8226 leukemia, inactive: 97.3%; in the test on OVCAR-8 ovarian, inactive: 94.9%. The growth in the test on OVCAR-5 ovarian is inactive: 103%; in the test on OVCAR-4 ovarian it was inactive: 103%; in the test with SK-OV-3 ovarian, inactive: 99.7%; in the test on IGROV1 ovarian, inactive: 93.3%; in the test on OVCAR-3 ovarian, inactive: 106%.
